Target: Cyclin-dependent kinase 4 (Homo sapiens, UniProt P11802)

Sequences of proteins named here, by UniProt entry; tags and fusion partners are left off. A change or cut given only in a name is not applied to a line headed by its entry.
UniProt P11802: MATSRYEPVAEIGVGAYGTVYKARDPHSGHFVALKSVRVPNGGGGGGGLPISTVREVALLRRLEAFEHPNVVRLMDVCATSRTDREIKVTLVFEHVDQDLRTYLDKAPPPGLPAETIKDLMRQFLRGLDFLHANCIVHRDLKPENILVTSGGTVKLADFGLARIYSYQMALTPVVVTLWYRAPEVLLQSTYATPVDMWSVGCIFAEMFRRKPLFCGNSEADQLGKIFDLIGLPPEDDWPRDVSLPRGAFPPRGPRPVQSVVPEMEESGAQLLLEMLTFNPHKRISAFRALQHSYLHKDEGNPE

IC50: > 100 µM
Compound: Cn1cnc2c(NCc3ccccc3)nc(NCCO)nc21 [OLOMOUCINE]

— ChEMBL document CHEMBL1240533, “Selectivity and potency of cyclin-dependent kinase inhibitors” (AAPS J, 2006)
